Amino acid sequences for entries named in this document (tags omitted).
UniProt Q92847, whole entry: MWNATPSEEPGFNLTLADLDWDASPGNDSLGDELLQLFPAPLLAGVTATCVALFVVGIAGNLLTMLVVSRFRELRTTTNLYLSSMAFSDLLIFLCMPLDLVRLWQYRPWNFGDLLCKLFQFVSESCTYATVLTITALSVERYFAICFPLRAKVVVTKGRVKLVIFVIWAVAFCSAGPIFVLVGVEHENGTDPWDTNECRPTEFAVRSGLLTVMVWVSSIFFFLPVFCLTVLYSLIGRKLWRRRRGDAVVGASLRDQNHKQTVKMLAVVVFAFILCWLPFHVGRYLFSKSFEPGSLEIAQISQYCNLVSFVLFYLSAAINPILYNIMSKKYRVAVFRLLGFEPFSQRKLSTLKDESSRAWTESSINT

According to patent publication US20120083520A1:

Molecular target: human ghrelin receptor (GHS-R1a) (human) (UniProt Q92847)
Assay: cell-based or functional assay

ghrelin-induced Ca++-release (Fluo4 fluorescence), EC50: 5 nM
Substance: ghrelin (peptide)
